# AlphaSeq binding of Ab-14 light chain variants to a spike HR2 peptide

Values reported by Li et al. 2023, doi:10.1038/s41467-023-39022-2 (FLAb copy).

Target peptide (SARS-CoV-2 spike, HR2 region): PDVDLGDISGINAS

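Phage display of a naive human antibody library on the peptide gave the parent. This is the validation round: designs drawn from the data on random variants, tested in the same kind of assay. Group labels follow the data file (Ctrl: baseline library sampled from a position-specific scoring matrix, with some repeated check sequences; Rand: our label for a block that the file lists under HC and that is probably the random mutants of the ten best first-round binders; En: ensemble of fine-tuned language models; GP: Gaussian process model; HC: hill climbing; Gen: genetic algorithm; Gibbs: Gibbs sampling; a sequence that several methods proposed may carry one label only). The scFvs were displayed on barcoded MATa yeast, the peptide on MATalpha yeast. The frequency of each diploid, read from paired DNA barcodes, reflects how well the two displayed proteins bind. The ratio of observed to expected reads was calibrated, replicate by replicate, on BCL2-family standards whose Kd was known from biolayer interferometry. There are six technical replicates.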

Parent scFv Ab-14: VH joined to VL by the linker GGGGSGGGGSGGGGS. Changes lie in the light chain CDRs alone.
VH: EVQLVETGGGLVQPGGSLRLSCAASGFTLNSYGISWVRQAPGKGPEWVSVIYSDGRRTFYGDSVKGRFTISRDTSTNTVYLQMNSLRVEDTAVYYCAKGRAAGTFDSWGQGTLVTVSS
VL: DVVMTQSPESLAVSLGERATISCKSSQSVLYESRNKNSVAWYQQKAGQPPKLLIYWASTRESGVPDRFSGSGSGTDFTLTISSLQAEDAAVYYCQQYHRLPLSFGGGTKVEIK

The parent's light chain CDRs are KSSQSVLYESRNKNSVA, WASTRES, QQYHRLPLS; each variant's own CDRs replace them letter for letter.
The Kd shown is the geometric mean over detected replicates; a lower Kd is a better binder.
An entry "nd" has no value in the source: the pair was not observed among the diploids in any replicate. This suggests poor binding but is not conclusive.
Where one sequence has several entries in the source, the replicates are pooled.
The range of this assay differs from that of the first round, and the authors advise against merging the two.
The parent sequence was in this pool as ten entries: three were never detected, three once, and four in most replicates, with averages from 2.2 nM to 240 nM.
The authors' rule: three or more of the six replicates give a measured affinity, fewer mean a poor binder.
As a blank, each scFv also met three strains without target: over all light chain designs, 4% of these pairings were detected, typically at 430 nM and seldom below 38 nM.

CDR-L1,CDR-L2,CDR-L3,group,Kd (apparent),seen in
KFSQSWLYEDRVKNSVA,GASTRES,QQYHRLPLS,GP_HC,460 pM,6 of 6
TIGQTLMAGIRNRSNVA,EVSQRLN,QQYDRLPLI,En_Gen,55 nM,6 of 6
KMSQSVLMEMRNGNSVA,NASTRES,QQYHRLPLS,GP_Gibbs,1.6 nM,6 of 6
KSSQSQLLESRNKNSVA,WASTRES,QQYHRLPLS,Ctrl,510 nM,6 of 6
FSSQSVLYESRNFNSVA,HASTRED,QQYHRLPLS,GP_HC,2.7 nM,6 of 6
KGQQSQQYESQNWNSVA,NASYRES,QQYHRLPLS,GP_Gibbs,7.8 nM,6 of 6
KLMQEQEYQSRNPNSVA,HASERES,QQYHRLPLS,GP_Gibbs,440 pM,6 of 6
TIADLMGHISKNMNNVA,DMDTRGD,QQYNRLPLS,En_Gen,300 pM,6 of 6
KLEGSVEYESRWKNSVA,HASTRES,QQYHRLPLS,GP_Gibbs,2.0 nM,6 of 6
KLMQEQEYQSRMKNSVA,HASERLS,QQYHRLPLS,GP_Gibbs,2.1 nM,6 of 6
MISQLINMGSFAINSVA,QASLREE,QQYDRLPLM,En_Gen,3.8 nM,6 of 6
KSLQSVLYESRNKNSVA,LASTRED,QQYHRLPLI,Rand,200 nM,1 of 6
KLSQSELYESRCANNVA,NASQRES,QQYHRLPLS,GP_Gibbs,4.3 nM,6 of 6
SLYEVSEELSGKKHSVA,DNSTRGE,QQYFRLPLE,En_Gen,5.1 nM,6 of 6
KLSQSVLYESRNKNSVA,EASTREE,QQYHRLPLM,GP_Gen,420 pM,6 of 6
KLDTEWLYGKRNKNSVA,QASLRES,QQYHRLPLS,GP_Gibbs,2.2 nM,6 of 6
KSSQGTGYESRNKNSVA,WASTRES,QQYHRTPLS,Ctrl,nd,0 of 6
KFFQSQLYEQRNQNSVA,SASTRED,QQYHRLPLS,GP_Gibbs,1.6 nM,6 of 6
KLSQSVLYESRNKNSVA,EASTRLS,QQYHRLPLS,GP_Gen,9.5 nM,6 of 6
KITMTMRFEQKNSNNIA,EVSTRSK,QQYVRLPLA,En_Gen,880 pM,6 of 6
SLYDATLMESRNKNPIA,DVSTRPS,QQYDRLPLS,En_HC,1.7 nM,6 of 6
NLAMAYEQGILIKNNIA,SSNLREN,QQYEKLPLI,En_Gibbs,2.2 nM,6 of 6
KSGQGVLYESRMKNSVA,GASTRES,QQYHRLPLS,GP_HC,4.6 nM,6 of 6
KISEQMNFAQFNKQSIA,EVSTRSK,QSYNRLPLS,En_Gen,25 nM,6 of 6
KSQQSVLYESRCKNSVA,HASTRES,QQYHRLPLS,Ctrl,61 nM,6 of 6
KSSQSVLGESRNHNSVA,QASTRES,QQYHRLPLS,Ctrl,8.4 nM,6 of 6
KLQFSSLMLQRNKNSVA,SASTRES,QQYHRLPLS,GP_Gibbs,1.8 nM,6 of 6
KLSQSQLYESRNKNSVA,GASTRES,QQYHRLTLS,GP_HC,680 nM,5 of 6
MISQLYNMGQFAINSVA,QASQRNA,QQYDRLPLT,En_Gen,11 nM,6 of 6
KMQASQGYESRNKNSVA,QASKRES,QQYHRLPLS,GP_Gibbs,1.1 nM,6 of 6
YLSINEVSDSNNVSRVA,EAETSVA,QQYHHLPLI,En_Gibbs,90 nM,2 of 6
KSSQSVLYESRNKNSQA,WASTRES,QQYHRLPLS,Ctrl,15 nM,1 of 6
KSSQSVKAESRNKNSVA,DASTRES,QQYHRLPLS,GP_HC,1.9 nM,6 of 6
KLSQSWLYESRMKNSVA,NASTRED,QQYHRLPLS,GP_Gen,1.0 nM,6 of 6
KLMMLGDYESRNKNSVA,QASQREQ,QQYHRLPLS,GP_Gibbs,770 pM,6 of 6
ALSQSELYESRMKNSVA,NASTRED,QQYHRLPLS,GP_Gibbs,1.9 nM,6 of 6
IVSQLMLWGLSAKNSIA,EAVTRLN,QQYDRLPLI,En_Gen,nd,0 of 6
KFSQSDLYESRNKNSQA,WASTRES,QQYHREPLS,Ctrl,nd,0 of 6
KFSQSELYEERNQNSVA,GASTRLE,QQYHRLPLS,GP_Gibbs,2.2 nM,6 of 6
KLSQSTLYEQRMCNSVA,NASQRES,QQYHRLPLS,GP_Gibbs,1.2 nM,6 of 6
KSSISVEYQDRLSNSVA,DASQREW,QQYHRLPLS,GP_Gibbs,1.4 nM,6 of 6
KFGQMVLTGSYVKNSIA,QSSTREN,QQYHRLPLS,En_HC,2.0 nM,6 of 6
HSSPSVAYESRNKNSVA,NASTREA,QQYHRLPLS,GP_HC,1.6 nM,6 of 6
KISQSVLMESLNKNSVA,HASTRLD,QQYHRLPLS,GP_Gibbs,1.9 nM,6 of 6
KSSQSVLLESRNKNSVA,WASTRHS,QQYHRLPLS,Ctrl,100 nM,1 of 6
KQSQSVLYESRNKNAVA,DASTRES,QQYHWLPLS,GP_HC,2.1 nM,6 of 6
KVTQSVNYESRNKNSVA,NASKRES,QQYHMLPLS,Ctrl,2.6 nM,6 of 6
RISYEQFGNTYSVNNVA,QASVRAY,QMYQRLPLV,En_Gibbs,20 nM,4 of 6
KLSQSVLYESRNPNNVA,NASTRES,QQYHRLPLS,GP_Gen,580 pM,6 of 6
TISQSTQMESHNKNSVA,DLNVRGS,QQYDRLPLS,En_HC,2.9 nM,6 of 6
KISQSVLYEWRNKNSVA,DASTRES,QQYHRLPLS,GP_HC,760 pM,6 of 6
MISDLMLYGSRARNPIA,NASMREY,QQYHRLPLE,En_HC,7.7 nM,6 of 6
KIYQLGKGSQKINNNIA,QTDIREL,QSYNRLPLS,En_Gibbs,2.3 nM,6 of 6
MITAMLRGVGKDKNSVA,NAQTRES,QHYNRLPLS,En_HC,52 nM,6 of 6
MISDLTMAGSRNKNSVA,DLSTRGS,QQYHRLPLS,En_HC,890 pM,6 of 6
KLQLGLGVQKNVYYNVA,NESLKTA,QHYFRLPLT,En_Gibbs,68 nM,6 of 6
KFSQSTLYESRNKNSVA,NAQTRLW,QQYHRLPLS,GP_Gibbs,2.9 nM,6 of 6
KSSQSVAEESRNKNSVA,EASTRES,QQYHRLPLS,Ctrl,1.9 nM,30 of 30
KISQSVLYESRNKNSVA,WASTREL,QQYHRLPLS,Ctrl,1.9 nM,6 of 6
KISMLINQTFQLENNVA,EMVTREK,QQYNRLPLS,En_Gen,nd,0 of 6
KSIQSVLYESDNKNSVA,QASTRCS,QQYHRLPLS,Ctrl,2.1 nM,6 of 6
KLTVMGLHQSIDKKSIA,ERSTREN,QQYHRLPLS,En_HC,3.9 nM,6 of 6
KQSQSDLYESRNKNSVA,DASTRES,QAYHRLPLS,GP_HC,890 pM,6 of 6
QLMEEQSMRTEATRNIA,QGEQKVH,QQYFRLPLA,En_Gibbs,2.1 nM,6 of 6
KLQQSEDYESRNKNSVA,NASTRES,QQYHRLPLS,GP_Gen,490 pM,6 of 6
KLSFTSEMEHVNRNSVA,ELVTRMS,QQYNRLPLS,En_Gen,2.4 nM,6 of 6

Excerpt, the final 3 entries:

CDR-L1,CDR-L2,CDR-L3,group,Kd (apparent),seen in
QLMEEQSMRTEATRNIA,QGEQKVH,QQYFRLPLA,En_Gibbs,2.1 nM,6 of 6
KLQQSEDYESRNKNSVA,NASTRES,QQYHRLPLS,GP_Gen,490 pM,6 of 6
KLSFTSEMEHVNRNSVA,ELVTRMS,QQYNRLPLS,En_Gen,2.4 nM,6 of 6